This passage reports inhibition results from PubChem BioAssay AID2544 (Sanford-Burnham Center for Chemical Genomics, 2010).

Amino acid sequences for entries named in this document (tags omitted). A change or cut given only in a name is not applied to a line headed by its entry.
UniProt P09923: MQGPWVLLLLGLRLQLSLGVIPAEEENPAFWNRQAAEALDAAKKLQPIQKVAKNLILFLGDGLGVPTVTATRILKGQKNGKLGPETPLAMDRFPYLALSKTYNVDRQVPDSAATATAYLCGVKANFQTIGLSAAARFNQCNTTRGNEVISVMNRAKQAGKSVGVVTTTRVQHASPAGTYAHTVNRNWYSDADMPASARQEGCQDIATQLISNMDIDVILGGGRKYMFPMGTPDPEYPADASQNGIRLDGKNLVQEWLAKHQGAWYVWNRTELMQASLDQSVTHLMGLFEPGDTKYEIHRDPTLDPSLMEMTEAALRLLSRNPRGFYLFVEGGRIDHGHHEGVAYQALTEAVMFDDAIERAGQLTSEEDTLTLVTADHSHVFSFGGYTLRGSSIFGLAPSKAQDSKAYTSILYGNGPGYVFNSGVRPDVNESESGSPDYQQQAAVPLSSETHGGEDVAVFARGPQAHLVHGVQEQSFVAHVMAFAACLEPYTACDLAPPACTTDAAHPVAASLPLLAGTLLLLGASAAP

The list shows a part of the results, in another mix than the full data. Active and inactive are the calls of the source.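 The calls were made as follows: active = inhibition reaching a set limit with compound at 10 µM in the primary screen (cut at about 35% in these data); inactive = the rest.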

The assay concerns the target Intestinal-type alkaline phosphatase (Homo sapiens) (UniProt P09923). Description: blockers of intestinal alkaline phosphatase activity – biochemical, luminescence, uHTS, primary screen (AID 2544).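 Also: plate controls were DMSO wells with enzyme for no effect and no-enzyme buffer wells for full effect.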 The note with it: purified IAP, CDP-Star luminescence, 30 min; at 10 µM; hits give high values.
For `CS(=O)(=O)c1cc([N+](=O)[O-])c2no[n+]([O-])c2c1`, the inhibition (in general, the relative decrease from the control value, in per cent) is inactive: -8.9%.
As for `CCOP1(=S)c2c(C)nn(CCC#N)c2N=C(c2ccccc2F)N1C` (configuration not stated), the inhibition was inactive: 4.9%.
As for `O=P(Nc1nccs1)(c1ccccc1)c1nc2ccccc2s1` (configuration not stated), the inhibition was inactive: -4.7%.
Turning to `O=P(Nc1nccs1)(Oc1ccccc1)Oc1ccccc1`, the inhibition is inactive: -11.5%.
As for `Nc1ccccc1[As](=O)(O)c1ccccc1`, the inhibition was inactive: 0.8%.
As to `O=C(O)COc1ccc([As](=O)(O)O)cc1[N+](=O)[O-]`, the inhibition was inactive: 14%.
The same measure for `NC(=O)Nc1ccc([As](=O)(O)O)cc1`: inactive: -13.5%; for `CN(C)C(=O)c1cc([N+](=O)[O-])cc2c1-c1c(cc([N+](=O)[O-])cc1[N+](=O)[O-])C2=O`: inactive: 5.6%.
Consider `O=[N+]([O-])c1ccc2c(c1)nnn2O`, for which the inhibition is inactive: 8.2%.
On to `CN(C(=O)Cc1ccc(Cl)c(Cl)c1)[C@H]1CC[C@@]2(CCCO2)C[C@@H]1N1CCCC1`, for which the inhibition is inactive: 14.6%.
Regarding `N#CCCN(C(=O)COC(=O)C(O)(c1ccccc1)c1ccccc1)c1ccc(F)cc1`, the inhibition was inactive: -7.5%.
On to `CN(C(=O)Cc1ccccc1)[C@@H]1CC[C@]2(CCCO2)C[C@H]1N1CCCC1`, for which the inhibition is inactive: 0.3%.
For the compound `CCOP1(=S)c2c(C)nn(CCC#N)c2N=C(c2ccc(F)cc2)N1C` (configuration not stated), the inhibition is active: 38.8%.
With `COc1cc(C(=O)NCC2(N3CCOCC3)CCCCC2)cc(Cl)c1OC(C)C`, the inhibition was inactive: -9.7%.
On to `O=[As](O)(O)c1cccnc1`, for which the inhibition was inactive: 4.7%.
Take `CS(=O)(=O)c1ccc(Cl)c(NC(=O)COC(=O)C(O)(c2ccccc2)c2ccccc2)c1`: the inhibition is inactive: -26.5%.
In the case of `O=C(OC1CN2CCC1CC2)c1ccc(Cl)cc1` (configuration not stated), the inhibition was inactive: 7.2%.
The result for `O=[As](O)(c1cccc(O)c1)c1cccc(O)c1` reads inactive: 12.2%; that for `Cc1cccc(OCC(=O)OC2CN3CCC2CC3)c1` (configuration not stated), inactive: 12.8%; that for `CCCOP(=S)(Nc1nc(N)cc(=O)[nH]1)OCCC`, inactive: -8.9%.
The result for `Cc1ccc(NCCc2c([N+](=O)[O-])cc([N+](=O)[O-])cc2[N+](=O)[O-])cc1` reads inactive: 7.2%; that for `COc1cc(C2NCCC3(OCCO3)C2(C)C)cc(OC)c1OC` (configuration not stated), inactive: -14.1%; that for `CCOP(=O)(Nc1cccc2ccccc12)OCC`, inactive: 7.3%.
The result for `CN(CCCl)Cc1cc(Cl)c(NC2=NCCN2)c(Cl)c1` reads inactive: 9.9%.
As to `CCOP(=O)(Nc1ccc(C)cn1)OCC`, the inhibition is inactive: 15.6%.
Regarding `O=P1(Nc2ccccn2)COc2ccccc2OC1`, the inhibition was inactive: -15.5%.
The same measure for `CCC1=CC2Cc3nc4ccc(Cl)cc4c(N)c3C(C1)C2` (configuration not stated): inactive: 3.9%.
